Measured values reported in US7217810B2, “High level production of arbutin in green plants and microbes” (E. I. du Pont de Nemours and Company, priority 2003, dated 2007).

Target: T1, UGT72B1 (Arabidopsis thaliana, UniProt Q9M156)
T1 sequence (Q9M156 1-480): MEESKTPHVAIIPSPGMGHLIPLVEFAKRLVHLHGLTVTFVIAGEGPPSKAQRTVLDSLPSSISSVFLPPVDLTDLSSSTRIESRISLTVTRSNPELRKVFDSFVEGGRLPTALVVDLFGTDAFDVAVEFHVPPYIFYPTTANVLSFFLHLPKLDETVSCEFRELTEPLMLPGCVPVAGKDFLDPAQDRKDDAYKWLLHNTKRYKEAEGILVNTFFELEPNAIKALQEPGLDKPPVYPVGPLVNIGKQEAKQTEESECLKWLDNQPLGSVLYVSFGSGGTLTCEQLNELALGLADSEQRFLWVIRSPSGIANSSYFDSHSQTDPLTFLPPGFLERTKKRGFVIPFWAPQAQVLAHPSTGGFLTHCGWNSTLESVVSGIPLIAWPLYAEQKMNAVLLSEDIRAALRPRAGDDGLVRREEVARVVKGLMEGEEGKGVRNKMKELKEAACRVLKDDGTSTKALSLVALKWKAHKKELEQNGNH
Settings: 30° C., translated from cited specific activity

turnover number: ~0.6 s⁻¹
Compound: O=C(O)c1cc(O)ccc1O [2,5-dihydroxybenzoic acid]
